Laboratory results from the NIST ThermoML archive (doi:10.1021/je7007523).
Numbers after ± are expanded uncertainties.

Details: 313.15 K; Liquid; Ebulliometric method (Recirculating still)

vapor or sublimation pressure: 2.055 ± 0.047 kPa [middle of 7 runs]
SMILES: CCCCOCCCC [dibutyl ether]
